The values below come from article PMC4571291.

Assay [1] deals with actin (UniProt P68135). The assay can be described thus: ITC; second site (KD2). The conditions noted are these: domain or fragment. (In general: ITC needs no label: the signal is the heat of the interaction.)
Assay [2] addresses actin (UniProt P68135). The assay can be described thus: ITC; first site (KD1). The following applies: domain or fragment.

For “Tmod1_(ABS2)Mut (from UniProt P28289-1 164-351)”, the Kd (in general, the concentration at which binding is half-saturated) in the assay with actin [1] is 1600 nM; with actin [2] it was 22 nM.
